This is an account of results in ChEMBL document CHEMBL4024757, “Application of the Ugi Multicomponent Reaction in the Synthesis of Reactivators of Nerve Agent Inhibited Acetylcholinesterase” (2017).

SMILES strings stand for the structures.

Holding throughout (details): in vivo
The subject of data set [1] is Rattus norvegicus. Kind of data set: Toxicity in Wistar rat assessed as labored breathing at 32 umol/kg, iv.
Data set [2] deals with Rattus norvegicus. Kind of data set: Toxicity in Wistar rat assessed as sensitivity to light at 16 umol/kg, iv.
For data set [3], the system named is Rattus norvegicus. The experiment in a line: Toxicity in Wistar rat assessed as lethality at 32 umol/kg, iv.

Turning to `CCCCN(CC(=O)NCc1ccccc1)C(=O)CCCCCn1ccnc1/C=N/O`, the Activity result with Rattus norvegicus [1] and with Rattus norvegicus [2] was “Non-Toxic” throughout.
As for `COc1ccc(CN(CC(=O)NC(C)C)C(=O)CCCCCn2cc[n+](C)c2/C=N\O)cc1.[I-]`, the Activity entry in the data set with Rattus norvegicus [1] and with Rattus norvegicus [2] was “Non-Toxic” throughout.
Take `COc1ccc(CN(CC(=O)NCc2ccccc2)C(=O)CCCCCn2ccnc2/C=N/O)cc1`: the Activity result with Rattus norvegicus [1] and in the data set with Rattus norvegicus [2] was “Non-Toxic” throughout.
`C[n+]1ccccc1/C=N/O.[Cl-]`: the Activity entry with Rattus norvegicus [1], in the data set on Rattus norvegicus [2] and in the data set with Rattus norvegicus [3] was “Non-Toxic” each time.
For `COc1ccc(CN(CC(=O)NCc2ccccc2)C(=O)CCCCCn2cc[n+](C)c2/C=N\O)cc1.[I-]`, the Activity entry in the data set with Rattus norvegicus [1] and in the data set on Rattus norvegicus [2] was “Toxic” throughout.
